Measured values published in patent US20260097126A1, “PHARMACEUTICAL FORMULATIONS AND METHODS FOR THE TREATMENT OF METABOLIC AND LIVER DISORDERS” (priority 2022, published 2026).

System: mice fed a Gubra amylin NASH (GAN) diet
Assay: Biological effects in GAN diet-induced NASH mice
Assay type: in vivo
Details: after two weeks
Protocol: NASH was induced in mice by feeding mice a Gubra amylin NASH (GAN) diet as described in Boland et al. World J Gastroenterol. 2019, 25(33): 4904-4920. One week prior to administration of a first dose of compounds, the mice were weighed and randomized, and their food intake was measured. Mice were randomly assigned to dosing groups, with twelve mice per group. […] Compound dose titration (nmol/kg): 0.6 (day 0), 1.2 (day 1), 2.4 (day 2), 4.8 (day 3), 4.8 (day 4), 12 (day 5), 30.0 (from day 6).
After two weeks, animals were sacrificed. Plasma enzymes (P-ALT (alanine aminotransferase) and P-AST (aspartate aminotransferase)), total plasma triglycerides, and total plasma cholesterol were measured, and terminal necropsy of each liver was carried out, determining relative liver weight as a percentage of body weight, assaying total liver biochemistry including total liver triglycerides, plasma insulin and total liver cholesterol, as well as histological evaluation of Galectin-3, and alpha-smooth muscle actin.

Substance: tirzepatide
- Gal-3 Relative (liver Galectin-3, histological quantitative assessment): 6.7 ± 0.5 percent fractional area
- α-SMA Relative (liver alpha-smooth muscle actin, histological quantitative assessment): 5.3 ± 0.8 percent fractional area
- TG Relative (liver triglycerides): 42 ± 6 mg per/g liver
